The subject of the test is male ICR mice. As to the kind of experiment: FOB, cannabinoid receptor antagonism of 3 mg/kg JWH-018 effects. The format is in vivo, mouse. To be noted: rimonabant/vehicle and SR144528/vehicle groups; all mice.

Structures are written as SMILES.

The text below walks through data of PMC5028280 (Neuropharmacology, 2016).

Regarding `Cc1c(C(=O)NN2CCCCC2)nn(-c2ccc(Cl)cc2Cl)c1-c1ccc(Cl)cc1` [rimonabant], the “FOB selected measures, antagonist 3 mg/kg i.p. plus vehicle” value is “Normal responses”.
